{"source": "patent US20120301405A1", "about": "“Simple Mechanical Procedure and Product for Deterring Substance Abuse” (priority 2005, published 2012)", "origin": "cited, not measured here", "settings": "value in square brackets", "data": [{"smiles": "CN1C(=O)CN=C(c2ccccc2F)c2cc([N+](=O)[O-])ccc21", "note": "[Flunitrazepam]", "values": [{"measurement": "Elimination ½-Life (h) [active metabolite]", "value": "[36-200] h"}]}]}
